Sequences of proteins named here, by UniProt entry; tags and fusion partners are left off.
UniProt Q92847, whole entry: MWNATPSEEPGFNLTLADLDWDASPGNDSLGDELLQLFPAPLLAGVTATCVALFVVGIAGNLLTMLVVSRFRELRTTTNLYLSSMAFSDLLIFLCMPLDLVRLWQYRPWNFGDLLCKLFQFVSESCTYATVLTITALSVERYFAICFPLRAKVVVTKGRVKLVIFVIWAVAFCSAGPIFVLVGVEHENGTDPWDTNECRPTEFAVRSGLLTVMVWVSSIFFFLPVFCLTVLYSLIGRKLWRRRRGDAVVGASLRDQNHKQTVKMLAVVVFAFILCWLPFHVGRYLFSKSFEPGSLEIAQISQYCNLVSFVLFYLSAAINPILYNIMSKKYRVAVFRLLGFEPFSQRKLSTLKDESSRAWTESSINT

The target of the first experiment is human growth hormone secretagogue receptor (hGHS-R1a) (Homo sapiens, UniProt Q92847). Nature of the experiment: Competitive radioligand binding assay (ghrelin receptor), standard method A. The conditions noted are these: binding activity at the human ghrelin receptor.
The compound `CCC(C)C1NCCOc2ccccc2CCCNC(=O)C(Cc2ccccc2)NC(=O)C(CO)N(C)C1=O` (single isomer, unassigned) [934b] showed a Ki above 500 nM.

For the compound `CC(C)[C@@H]1NCCOc2ccccc2CCCNC(=O)[C@@H](Cc2ccc(Cl)cc2)NC(=O)[C@@H](C)N(C)C1=O`, the Ki is below 100 nM.

In the case of `CC(C)C[C@H]1NC(=O)[C@@H](C)N(C)C(=O)[C@H](C2CC2)NC[C@H]2CCC3CCCC(CCCNC1=O)C3O2` (stereo partly drawn), the Ki was below 100 nM.

The compound `CC(C)C[C@H]1NC(=O)[C@@H](C)N(C)C(=O)[C@H](C2CC2)NCC2Cc3cccc(c3O2)CCCNC1=O` (single isomer, unassigned) yielded a Ki below 500 nM.

The compound `CC(C)C[C@H]1NC(=O)[C@@H](C)N(C)C(=O)[C@H](C2CC2)NC[C@H]2CCc3ccnc(c3O2)CCCNC1=O` gave an inhibitory constant (Ki) below 100 nM.

Take `CC1CCc2ccccc2OCCNC(C2CC2)C(=O)N(C)C(C)C(=O)NC(Cc2ccc(O)cc2)C(=O)N1` (single isomer, unassigned): the Ki is below 100 nM.

`C[C@@H]1C(=O)N[C@H](Cc2ccc(O)cc2)C(=O)NCCCc2ccccc2O[C@H](C)[C@@H](C)N[C@@H](C2CC2)C(=O)N1C` had a Ki below 500 nM.

In turn, `CC(C)CC1NC(=O)C(C)N(C)C(=O)C(C2CC2)NCC(C)Oc2cccnc2CCCNC1=O` (single isomer, unassigned) had a Ki above 500 nM.

As to `C[C@@H]1CN[C@@H](C2CC2)C(=O)N(C)[C@H](C)C(=O)N[C@H]([C@@H](C)c2ccc(O)cc2)C(=O)N[C@@H](C)CCc2ccccc2O1`, the Ki is below 100 nM.

`CC1CNC(C2CC2)C(=O)N(C)C(C)C(=O)NC(Cc2cccnc2)C(=O)NCCCc2cccc(F)c2O1` (single isomer, unassigned) [973b] came in with a Ki above 500 nM.

Compound `CC1CCNC(=O)[C@@H](Cc2ccc(F)cc2)NC(=O)[C@@H](C)N(C)C(=O)[C@H](C2CC2)NC[C@@H](C)Oc2ccccc21` (single isomer, unassigned) [1017a] showed a Ki below 100 nM.

`C[C@@H]1CN[C@@H](C2CC2)C(=O)N(C)[C@H](C)C(=O)N[C@H](Cc2ccc(Cl)cc2)C(=O)NCCCc2ccc(Cl)cc2O1` gave a Ki below 500 nM.

Take `CCC(C)C1NCCOc2ccccc2CCCNC(=O)C(Cc2ccccc2)NC(=O)C(CO)N(C)C1=O` (single isomer, unassigned) [934a]: the Ki was below 100 nM.

As to `CC1CCNC(=O)[C@@H](Cc2ccc(F)cc2)NC(=O)[C@@H](C)N(C)C(=O)[C@H](C2CC2)NC[C@@H](C)Oc2ccccc21` (single isomer, unassigned) [1017b], the Ki is below 500 nM.

As for `C[C@@H]1CN[C@@H](C2CC2)C(=O)N(C)[C@H](C)C(=O)N[C@H](Cc2ccc(F)cc2)C(=O)NCCCc2ccc(Cl)cc2O1`, the Ki is below 500 nM.

With `CC1CCc2ncccc2OC(C)CNC(C2CC2)C(=O)N(C)C(C)C(=O)NC(Cc2ccc(O)cc2)C(=O)N1` (single isomer, unassigned) [1087b], the Ki is below 100 nM.

As to `CC1CCc2ncccc2OC(C)CNC(C2CC2)C(=O)N(C)C(C)C(=O)NC(Cc2ccc(O)cc2)C(=O)N1` (single isomer, unassigned) [1087a], the Ki is below 500 nM.

`CC1CCc2ncccc2OC(C)CNC(C2CC2)C(=O)N(C)C(C)C(=O)NC(C(C)c2ccc(O)cc2)C(=O)N1` (single isomer, unassigned) [1098b] showed a Ki below 100 nM.

Compound `C[C@@H]1C(=O)N[C@H](Cc2ccc(F)cc2)C(=O)NCCCc2cccc3c2OC(CN[C@@H](C2CC2)C(=O)N1C)C3` (single isomer, unassigned) registered a Ki below 100 nM.

Turning to `CCC(C)C1NCC(C)Oc2ccccc2CCCNC(=O)C(CC(C)C)NC(=O)C(C)N(C)C1=O` (single isomer, unassigned), the Ki is below 100 nM.

As to `CC1CCc2ncccc2OC(C)CNC(C2CC2)C(=O)N(C)C(C)C(=O)NC(C(C)c2ccc(O)cc2)C(=O)N1` (single isomer, unassigned) [1098a], the Ki was below 500 nM.

Take `CC1CNC(C2CC2)C(=O)N(C)C(C)C(=O)NC(Cc2cccnc2)C(=O)NCCCc2cccc(F)c2O1` (single isomer, unassigned) [973a]: the Ki is below 100 nM.

In the case of `CC1CCc2ncccc2OC(C)CNC(C2CC2)C(=O)N(C)C(C)C(=O)NC(Cc2ccc(O)cc2)C(=O)N1` (single isomer, unassigned) [1089b], the Ki was below 500 nM.

On to `CC1CCc2ncccc2OC(C)CNC(C2CC2)C(=O)N(C)C(C)C(=O)NC(Cc2ccc(O)cc2)C(=O)N1` (single isomer, unassigned) [1089a], for which the Ki is below 100 nM.

Another experiment has as its target GHS-R1a receptor (human ghrelin receptor) (Homo sapiens, UniProt Q92847). Kind of experiment: Aequorin functional assay (ghrelin receptor), standard method B. The conditions noted are these: functional activity at the human ghrelin receptor.
As for `CC1CNC(C2CC2)C(=O)N(C)C(C)C(=O)NC(Cc2cccnc2)C(=O)NCCCc2cccc(F)c2O1` (single isomer, unassigned) [973b], the EC50 is below 400 nM.

In turn, `CCC(C)C1NCC(C)Oc2ccccc2CCCNC(=O)C(CC(C)C)NC(=O)C(C)N(C)C1=O` (single isomer, unassigned) yielded an EC50 below 400 nM.

`CC1CNC(C2CC2)C(=O)N(C)C(C)C(=O)NC(Cc2cccnc2)C(=O)NCCCc2cccc(F)c2O1` (single isomer, unassigned) [973a] displayed an EC50 below 400 nM.

These data come from patent US10258602B2 (Ocera Therapeutics, Inc., priority 2007, dated 2019).
